Ab-91 heavy chain CDR variants: yeast mating affinities

Binding partner: SARS-CoV-2 spike HR2 peptide, sequence PDVDLGDISGINAS.

Parent: Ab-91, a human scFv built as VL, three GGGGS repeats, VH. Only the CDRs of the heavy chain vary.
VL: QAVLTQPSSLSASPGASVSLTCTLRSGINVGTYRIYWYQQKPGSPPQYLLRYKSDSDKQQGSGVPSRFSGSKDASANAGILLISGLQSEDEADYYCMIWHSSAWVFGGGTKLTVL
VH: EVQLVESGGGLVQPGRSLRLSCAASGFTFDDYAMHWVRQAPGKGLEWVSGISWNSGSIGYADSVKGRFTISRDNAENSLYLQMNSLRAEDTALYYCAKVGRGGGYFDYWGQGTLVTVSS

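The parent was found by panning a naive human phage display library on the peptide. AAYL51 was designed without a model: most single CDR substitutions and a random sample of double and triple ones. In AlphaSeq, yeast of one mating type display the scFv and yeast of the other type display the target. After mating in shaken culture at 30 °C for 16 h, diploids were selected and their barcode pairs sequenced. A regression on co-assayed BCL2-family reference pairs converts the normalised counts of each replicate to an apparent Kd. There are three technical replicates.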

The parent's heavy chain CDRs are GFTFDDYAMH, GISWNSGSIGYADSVK, VGRGGGYFDY; each variant's own CDRs replace them letter for letter. Values are log10 of the apparent Kd in nM; lower means stronger binding. "n.d." marks a missing value. The strain was present, yet no cells mated with the target were sequenced in that replicate, which points to weak or no binding. Nonspecific signal, from three strains lacking the peptide, appeared in 21% of pairings of library AAYL51, centred on 4.54 (5% of these signals below 3.26); values are not corrected for it. Also given: how often the same scFv was detected with the empty control strains, with their mean in brackets. For reference, the parent read 1.86 as the reference entry and 0.88 as a member of this library.

CDR-H1,CDR-H2,CDR-H3,"replicates, log10 nM",control signals
GFTFDWYAMH,GISWNSGEIGYADSVK,VGRGGGEFDY,2.27 / 2.37 / 2.05,4 of 9 (5.83)
GFTFDDYAMH,GKSWNSGSIGYAAVVK,VGRGGGYFDY,4.05 / 4.02 / n.d.,1 of 9 (3.31)
GFTADDYAMH,GISWNSGSIGYADSVK,VGRGGMYCDY,n.d. / 5.16 / n.d.,2 of 9 (4.75)
GFTFDDYAMH,GTSWNSGSIGYDNSVK,VGRGGGYFDY,n.d. / n.d. / n.d.,0 of 9
GFTFDDYAAL,GISWNAGSIGYADSVK,VGRGGGYFDY,n.d. / n.d. / n.d.,0 of 9
GGWFDDYAMH,GISWNSGSIGYADSVK,VGRGGGGFDY,3.88 / 3.58 / 3.72,3 of 9 (5.10)
GFTFDDYAMH,GESWNSGSIGNADSVE,VGRGGGYFDY,3.17 / n.d. / n.d.,0 of 9
GFTFDDYAMD,GISWNSGSIGYAKSVK,VGRGGGYFDY,n.d. / 4.21 / n.d.,3 of 9 (4.94)
GFTFDDYAMH,GISPNSGSIGYADSFK,VGRGGGYFDR,0.24 / 0.26 / -0.48,8 of 9 (5.32)
GFTFNDYAMH,NISWNSGSIGYADSVK,VGRGGGYFDY,n.d. / n.d. / 4.44,2 of 9 (4.01)
GATFDDYAMH,DISWNSGSIGYADSVK,VGRQGGYFDY,4.38 / n.d. / n.d.,0 of 9
GFTADDYAMH,GISLNSGSIGYADSVK,VGVGGGYFDY,n.d. / n.d. / n.d.,2 of 9 (4.57)
GFTFDDYAMH,GISWNPGSITYADSVK,VGRGGGYFDY,5.02 / 5.80 / 2.91,2 of 9 (4.76)
GFTFDDYTMH,GISWNSGSIGYADSVK,IGRGGGYFDQ,n.d. / 5.35 / n.d.,4 of 9 (4.98)
GFTFVVYAMH,GISWNSGSIGYADSVK,YGRGGGYFDY,n.d. / n.d. / n.d.,0 of 9
GFTFDDYNMH,GISWNSGSIGYADAVK,CGRGGGYFDY,5.08 / 5.04 / 5.45,6 of 9 (5.36)
GFTTDDYAMH,GISWNSGSIGYADWVK,VGRGGGYSDY,4.87 / n.d. / n.d.,4 of 9 (4.47)
GFEFDDYAMH,GISWNSGFIGYADSVK,VGWGGGYFDY,2.70 / 2.99 / 2.67,6 of 9 (5.13)
GFTFDDYAMH,GISWNSGSIAYADSVK,VGRGGGYFDY,4.81 / 5.06 / 4.80,4 of 9 (3.76)
GFTFDFYAMH,GSSWNSGSIGYADSVK,VGRGGGTFDY,5.32 / 6.42 / n.d.,4 of 9 (5.28)
GFTFDDYASH,GISWNSGSIGYKDSVK,VGRGGGYFDY,n.d. / n.d. / n.d.,5 of 9 (4.40)
GFTFDWYAMH,GISWNSGSIGYADSVK,VGMGGYYFDY,n.d. / n.d. / n.d.,1 of 9 (4.69)
GFTFDDYAMH,AISWNSGCIGYADSMK,VGRGGGYFDY,4.24 / n.d. / 3.64,6 of 9 (4.53)
GFTFDDYAMF,GISWNSGSIGKADSVK,QGRGGGYFDY,4.23 / 4.23 / n.d.,1 of 9 (4.30)
GFTFDDYAMH,GISWNSGFYGYADSVK,VGRGGGYFVY,4.73 / 6.09 / n.d.,5 of 9 (4.24)
GFTFDDYAMH,HISWNSGSIGYADIVK,VMRGGGYFDY,n.d. / n.d. / n.d.,1 of 9 (1.96)
GFAFDPYAMH,GISWGSGSIGYADSVK,VGRGGGYFDY,4.68 / 3.44 / n.d.,0 of 9
GFTFDDYAMH,GISWNSGSIGYAWSVK,VGRDGTYFDY,5.60 / n.d. / 3.65,3 of 9 (3.73)
TFTFDDYAMH,GISWNSGSIGYAWSVK,VGPGGGYFDY,n.d. / n.d. / n.d.,0 of 9
GFTFDDYMMH,GISMNSGSIGYADSVK,VGRGGGYFDY,n.d. / n.d. / n.d.,0 of 9

Extract of 5 entries:

CDR-H1,CDR-H2,CDR-H3,"replicates, log10 nM",control signals
GFAFDPYAMH,GISWGSGSIGYADSVK,VGRGGGYFDY,4.68 / 3.44 / n.d.,0 of 9
GFTFDDYAMH,GTSWNSGSIGYDNSVK,VGRGGGYFDY,n.d. / n.d. / n.d.,0 of 9
GFTFVVYAMH,GISWNSGSIGYADSVK,YGRGGGYFDY,n.d. / n.d. / n.d.,0 of 9
GFEFDDYAMH,GISWNSGFIGYADSVK,VGWGGGYFDY,2.70 / 2.99 / 2.67,6 of 9 (5.13)
GFTFNDYAMH,NISWNSGSIGYADSVK,VGRGGGYFDY,n.d. / n.d. / 4.44,2 of 9 (4.01)

Values reported by Engelhart et al. 2022, doi:10.1038/s41597-022-01779-4 (FLAb copy).